# AlphaSeq binding of Ab-95 light chain variants to a spike HR2 peptide

The measurements come from Engelhart et al. 2022 (doi:10.1038/s41597-022-01779-4) through the FLAb antibody collection.

Binding partner: SARS-CoV-2 spike HR2 peptide, sequence PDVDLGDISGINAS.

Ab-95 is the parent antibody, in scFv form: VH, then a (GGGGS)3 linker, then VL. The heavy chain is unchanged in all variants.
VH: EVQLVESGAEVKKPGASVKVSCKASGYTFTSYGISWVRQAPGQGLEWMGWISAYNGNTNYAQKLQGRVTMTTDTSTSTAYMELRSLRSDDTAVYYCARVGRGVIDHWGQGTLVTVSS
VL: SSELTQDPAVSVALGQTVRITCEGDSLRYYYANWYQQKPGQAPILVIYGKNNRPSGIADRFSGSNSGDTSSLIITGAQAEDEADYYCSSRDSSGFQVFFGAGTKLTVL

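The library (AAYL52) carries one to three amino acid substitutions per variant, with no insertions or deletions. AlphaSeq pools MATa yeast showing the antibodies with MATalpha yeast showing the peptide. After mating in shaken culture at 30 °C for 16 h, diploids were selected and their barcode pairs sequenced. Each replicate has its own calibration line, from reference interactions of the BCL2 family. There are three technical replicates.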

The parent's light chain CDRs are EGDSLRYYYAN, GKNNRPS, SSRDSSGFQVF; each variant's own CDRs replace them letter for letter. Scale: log10 of Kd in nM, estimated from mating counts; low values are strong binders. The mean shown is taken over the replicates in which the pair was detected. Where no diploid with the target was found in that replicate, the entry reads "n.d.": below detection, most likely a poor binder, though not proof of it. As a blank, each scFv also met three strains without target: over library AAYL52, 28% of these pairings were detected, typically at 3.91 and seldom below 2.90. Also given: how often the same scFv was detected with the empty control strains, with their mean in brackets. Parent in this assay: reference entry 2.31, copy in this library 2.25.

| CDR-L1 | CDR-L2 | CDR-L3 | replicates, log10 nM | mean, log10 nM | control signals |
|---|---|---|---|---|---|
| EGDSLRYYYDN | GKNCHPS | SSRDSSGFQVF | n.d. / n.d. / n.d. | n.d. | 4 of 9 (4.02) |
| EGDSLRYYYAI | GKNKRPS | SRRDSSGFQVF | 4.06 / 3.96 / 3.38 | 3.80 | 4 of 9 (3.67) |
| EGDSLRYYYAN | GKNNRPS | SSRDSMRFQVH | 2.98 / 2.47 / 2.26 | 2.57 | 3 of 9 (4.12) |
| EGDSLRWYQAN | GKNNRPS | SSRDSSNFQVF | 2.89 / 5.02 / 3.79 | 3.90 | 1 of 9 (4.73) |
| EGDSHRYYYAN | AKNNRPS | SSRDSSGFQVF | n.d. / n.d. / n.d. | n.d. | 4 of 9 (3.89) |
| DGDSMRYYYAN | GKTNRPS | SSRDSSGFQVF | 2.92 / 4.04 / 3.95 | 3.63 | 2 of 9 (3.48) |
| EGRSLRYYYVN | GKNNRPS | SSRDSSGFQVF | 2.59 / 2.44 / 2.29 | 2.44 | 3 of 9 (3.64) |
| EGDSLRYYYAN | GKNNRPS | SSRRYSGFQVT | n.d. / n.d. / n.d. | n.d. | 0 of 9 |
| HGDSLRIYYAN | GKNNRPS | SSRDSSCFQVF | n.d. / 3.66 / 2.68 | 3.17 | 3 of 9 (4.09) |
| EGDSLRYIYAN | GHNNRPS | SSRDSYGFQVF | 3.76 / 3.17 / n.d. | 3.47 | 4 of 9 (4.03) |
| EGDSLAYYYAN | GKNNRGS | SSRDSSGFTVF | 2.43 / 2.24 / 1.45 | 2.04 | 2 of 9 (5.31) |
| EGDSLRYPYAN | GKNNRFS | SSRDQSGFQVF | 2.49 / 2.40 / 2.42 | 2.44 | 2 of 9 (3.87) |
| EGDSLRYYYAN | GKNNRPS | KSRDSSGYQVF | 2.09 / 2.68 / 1.62 | 2.13 | 5 of 9 (4.06) |
| NGDSLRYYYAN | GKNNRPS | SSGDSSGQQVF | 3.95 / 4.67 / 4.59 | 4.40 | 3 of 9 (4.05) |
| EGDSLRYYYAN | GKNNRPS | SSRCSSGFYVK | n.d. / n.d. / n.d. | n.d. | 1 of 9 (3.97) |
| EGDSLRTPYAN | GKNNRPS | SSRDSFGFQVF | 3.16 / 2.21 / 2.20 | 2.52 | 2 of 9 (3.33) |
| EGDSLRYYYAN | GKNNRPV | SSRDSSGFQVP | 2.32 / 2.37 / 1.79 | 2.16 | 2 of 9 (3.73) |
| EGDSLRYYKAN | GKNNRPS | ISRVSSGFQVF | 4.74 / n.d. / n.d. | 4.74 | 1 of 9 (2.41) |
| EGDSLRYYYAN | GKNNRPH | SSRDSSGVQVF | 2.28 / 3.23 / 2.57 | 2.69 | 1 of 9 (3.24) |
| EGDSLRYYYAN | GSNNRPS | SSRDSSWFQVN | n.d. / 4.57 / n.d. | 4.57 | 0 of 9 |
| EGPSLEYYYAN | GKNNRPS | SSRGSSGFQVF | 2.36 / 2.29 / 2.22 | 2.29 | 3 of 9 (4.05) |
| EGDSLRYYWAF | GKNNRPS | SSRDSPGFQVF | 4.88 / 4.21 / n.d. | 4.55 | 4 of 9 (3.90) |
| EQDSLRYYYAE | GKNNRPS | SSRQSSGFQVF | 4.15 / n.d. / 3.63 | 3.89 | 5 of 9 (3.99) |
| EGDSLRYVYRN | GKENRPS | SSRDSSGFQVF | n.d. / n.d. / n.d. | n.d. | 3 of 9 (4.67) |
| TGDSLRYYYAN | GKTNRTS | SSRDSSGFQVF | 3.42 / 3.49 / 3.07 | 3.33 | 5 of 9 (3.25) |
| EGDSLRYYYAK | GKNNMPS | SSRDSRGFQVF | n.d. / n.d. / n.d. | n.d. | 2 of 9 (4.47) |
| EGDYLRYYYAN | GKNNRPS | SSRISSGFQKF | 3.25 / 3.64 / 4.06 | 3.65 | 4 of 9 (4.04) |
| EGDSCRSYYAN | GKNNDPS | SSRDSSGFQVF | 4.86 / n.d. / n.d. | 4.86 | 2 of 9 (4.57) |
| EGKSLRYYYAN | RKKNRPS | SSRDSSGFQVF | 3.86 / 5.58 / 4.28 | 4.57 | 6 of 9 (3.97) |
| EGDSLRYYYAN | GKNSRPS | SSRDSSGFQEF | 1.96 / 1.85 / 1.49 | 1.77 | 1 of 9 (4.24) |
| NGDLLRYYYDN | GKNNRPS | SSRDSSGFQVF | 3.72 / 3.98 / 3.18 | 3.63 | 3 of 9 (4.91) |
| EGDSLRFYYAN | GKNNRPS | VSRDSPGFQVF | 3.44 / 3.38 / n.d. | 3.41 | 1 of 9 (3.79) |
| EGDSLRYYYAN | GKNNRPD | SERDSSRFQVF | 2.72 / 2.38 / 2.22 | 2.44 | 2 of 9 (4.52) |
| EGDSLRYYYAN | GKQNRTS | SSRDSIGFQVF | 3.93 / n.d. / n.d. | 3.93 | 4 of 9 (3.69) |
| EGDSLRYIYAN | GKNNRRS | SSRDSSGFQVK | 5.77 / n.d. / n.d. | 5.77 | 4 of 9 (4.29) |
| EGDSLRYYVAN | GKNNQPS | SSRFSSGFQVF | n.d. / n.d. / 4.40 | 4.40 | 3 of 9 (3.94) |
| EGDSLRYYYAN | GKNNNPM | SSRDGSGFQVF | 4.07 / 3.80 / n.d. | 3.94 | 5 of 9 (4.53) |
| EGDSLRYYYAN | GKMNRPS | SSRQSSGFQQF | n.d. / n.d. / n.d. | n.d. | 0 of 9 |
| EGDSLWYMYAN | KKNNRPS | SSRDSSGFQVF | n.d. / n.d. / n.d. | n.d. | 1 of 9 (3.24) |
| EGDSLRYYYAD | GKNNRPQ | SSVDSSGFQVF | n.d. / n.d. / n.d. | n.d. | 1 of 9 (4.27) |
| EGDSLRYYLAN | GINNRPS | SSRDSSGFAVF | 2.67 / 2.51 / 2.20 | 2.46 | 3 of 9 (4.24) |
| EGSSLRYYYAN | GKNNRWS | SSRESSGFQVF | 2.80 / n.d. / 2.32 | 2.56 | 2 of 9 (3.96) |
| EGDSLRYYYAN | GKNNRPD | SSRDSAGFQVF | 2.36 / 2.20 / 2.27 | 2.28 | 3 of 9 (4.27) |
| EGDSLRSHYAN | GKQNRPS | SSRDSSGFQVF | 1.44 / 1.46 / 0.74 | 1.21 | 4 of 9 (4.02) |
| EGDSLRYYYAN | GKNNRKS | STRDSSGFQVF | 3.17 / 4.24 / 3.13 | 3.51 | 2 of 9 (4.45) |